# From US20240391959A1 (Bicycle, published 2024)
# By UniProt entry, the sequences of proteins in these tests, tags left out. Residues count along the entry.
# UniProt P02786, 89-760 limits assumed: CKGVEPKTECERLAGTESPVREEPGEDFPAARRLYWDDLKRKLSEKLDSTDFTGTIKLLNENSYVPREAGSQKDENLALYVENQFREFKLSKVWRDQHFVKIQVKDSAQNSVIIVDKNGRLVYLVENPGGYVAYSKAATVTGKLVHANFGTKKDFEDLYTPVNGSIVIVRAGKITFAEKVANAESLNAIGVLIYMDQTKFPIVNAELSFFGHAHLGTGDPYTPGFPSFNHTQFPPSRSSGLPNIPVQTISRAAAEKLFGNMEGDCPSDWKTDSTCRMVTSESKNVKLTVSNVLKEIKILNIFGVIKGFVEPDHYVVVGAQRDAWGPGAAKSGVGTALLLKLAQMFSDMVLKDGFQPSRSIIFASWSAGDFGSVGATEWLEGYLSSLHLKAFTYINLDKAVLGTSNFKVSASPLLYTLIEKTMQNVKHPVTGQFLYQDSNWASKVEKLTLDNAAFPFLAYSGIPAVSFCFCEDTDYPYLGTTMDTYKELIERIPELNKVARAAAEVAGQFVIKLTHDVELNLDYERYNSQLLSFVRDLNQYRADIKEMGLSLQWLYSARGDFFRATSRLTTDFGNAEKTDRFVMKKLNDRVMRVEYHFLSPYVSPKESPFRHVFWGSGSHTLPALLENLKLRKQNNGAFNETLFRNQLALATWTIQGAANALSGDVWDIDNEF
# Where two headings read alike, the source gives them in different places.
# B1: BCY18032 (peptide)
# peptide: NXNCSPDAHLGCISYC
# modifications: N-methyl-tryptophan [NMeTrp] in N-terminal N[NMeTrp]N; Cys Ci, Cii, Ciii on TATB scaffold
# Key:
# [1] = target: T1, Recombinant human transferrin receptor 1 (TfR1), His6-tagged, a.a. 89-760 (human, UniProt P02786 89-760); assay: FP competition, competitor BCY15768
# T1 construct: range 89-760; SPR used ACRO Biosystems CD1-H5243 (His6, a.a. 89-760); also called Human TfR1; CD71; not shown: His6 tag
# [2] = target: T1, Recombinant human transferrin receptor …; assay: FP competition, competitor BCY15768; remark: listed apart in the source
binder,measurement,setting,value
B1,Ki,[1],0.105 µM
same,Ki,[2],0.077 µM
